Consider three compounds from patent US4499286A, “Derivatives of thienylacetic acid amides and their pharmaceutically acceptable acid salts and a process for the preparation thereof” (dated 1985).

The data set is described as follows: hygroscopicity of the crystals.
[1] abbreviates: hydrochloride, compound free of crystal water.

`CN(C(=O)Cc1cc(Cl)c(Cl)s1)[C@@H]1CCCC[C@H]1N1CCCC1.Cl` (relative stereo): the hygroscopicity result is recorded as “non-hygroscopic” (hydrochloride hemihydrate) and “hygroscopic” under setting [1].
As for `CN(C(=O)Cc1cc(Cl)sc1Cl)[C@@H]1CCCC[C@H]1N1CCCC1.Cl` (relative stereo), the hygroscopicity entry under setting [1] is recorded as “non-hygroscopic”.
For `CN(C(=O)Cc1ccc(Cl)s1)[C@@H]1CCCC[C@H]1N1CCCC1.Cl` (relative stereo), under setting [1], the hygroscopicity result is “non-hygroscopic”.
